Earlier results on one substance are cited in patent publication US7618630B2, “Methods of treating multiple myeloma and myeloma-induced bone resorption using integrin antagonists” (Board of Regents, The University of Texas System, priority 1998, dated 2009).

By UniProt entry, the sequences of proteins in these tests, tags left out. Residues count along the entry.
UniProt P13612, 34-1032: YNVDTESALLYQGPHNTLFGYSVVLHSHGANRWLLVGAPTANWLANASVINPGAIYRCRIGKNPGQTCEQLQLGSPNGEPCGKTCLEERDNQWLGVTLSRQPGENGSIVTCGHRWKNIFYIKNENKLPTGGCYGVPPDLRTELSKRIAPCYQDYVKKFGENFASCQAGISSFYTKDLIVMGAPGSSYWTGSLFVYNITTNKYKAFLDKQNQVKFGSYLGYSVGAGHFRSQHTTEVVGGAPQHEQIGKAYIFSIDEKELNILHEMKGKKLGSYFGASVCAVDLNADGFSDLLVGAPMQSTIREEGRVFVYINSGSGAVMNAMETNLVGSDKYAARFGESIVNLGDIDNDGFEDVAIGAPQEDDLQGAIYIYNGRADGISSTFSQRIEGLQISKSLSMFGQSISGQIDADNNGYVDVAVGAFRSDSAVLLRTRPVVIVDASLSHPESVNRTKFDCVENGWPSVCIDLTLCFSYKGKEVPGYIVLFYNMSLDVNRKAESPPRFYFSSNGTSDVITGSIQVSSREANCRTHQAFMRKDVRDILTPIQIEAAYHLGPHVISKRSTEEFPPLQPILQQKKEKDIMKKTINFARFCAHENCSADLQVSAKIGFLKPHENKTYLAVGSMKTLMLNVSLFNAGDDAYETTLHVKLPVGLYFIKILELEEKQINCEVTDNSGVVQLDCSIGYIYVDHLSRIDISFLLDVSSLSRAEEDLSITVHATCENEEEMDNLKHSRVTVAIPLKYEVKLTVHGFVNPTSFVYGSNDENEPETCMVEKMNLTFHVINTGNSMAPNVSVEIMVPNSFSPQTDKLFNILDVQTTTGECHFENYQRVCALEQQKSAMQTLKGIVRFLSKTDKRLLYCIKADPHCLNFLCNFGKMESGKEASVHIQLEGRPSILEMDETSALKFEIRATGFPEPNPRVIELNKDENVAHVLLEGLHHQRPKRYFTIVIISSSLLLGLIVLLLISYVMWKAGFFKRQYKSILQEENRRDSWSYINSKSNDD

In this data set the target is VLA-4 (Homo sapiens, UniProt P05556+P13612). The settings on record: cited from earlier work.

Turning to Glu-Ile-Leu-Asp-val-Pro-ser-Thr, the “inhibitory activity against fibronectin-dependent cell adhesion” value is listed as “possessed inhibitory activity against fibronectin-dependent cell adhesion”.
